Laboratory results taken from patent publication US20160031996A1 (CSL, published 2016).

Biological target: T1, full length human IL-3Rα, wild type (human, UniProt P26951 19-378)
T1 construct: expressed in 293F cells; also called WT
T1 sequence: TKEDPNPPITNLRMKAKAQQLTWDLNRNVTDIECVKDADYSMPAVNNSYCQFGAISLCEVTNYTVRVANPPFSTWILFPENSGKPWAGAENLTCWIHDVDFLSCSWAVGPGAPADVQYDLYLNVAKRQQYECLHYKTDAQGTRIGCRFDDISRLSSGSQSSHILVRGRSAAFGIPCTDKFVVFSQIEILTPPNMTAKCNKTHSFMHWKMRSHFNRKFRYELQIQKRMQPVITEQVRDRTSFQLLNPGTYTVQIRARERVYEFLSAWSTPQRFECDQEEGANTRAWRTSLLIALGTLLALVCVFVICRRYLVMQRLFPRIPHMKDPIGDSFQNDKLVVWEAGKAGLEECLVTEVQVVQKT
Experiment: flow cytometry, MFI normalised to WT (reference, set as 100%)

B1: antibody CSL362 (antibody, V domains shown)
VH: EVQLVQSGAEVKKPGESLKISCKGSGYSFTDYYMKWARQMPGKGLEWMGDIIPSNGATFYNQKFKGQVTISADKSISTTYLQWSSLKASDTAMYYCARSHLLRASWFAYWGQGTMVTVSS
VL: DIVMTQSPDSLAVSLGERATINCESSQSLLNSGNQKNYLTWYQQKPGQPPKPLIYWASTRESGVPDRFSGSGSGTDFTLTISSLQAEDVAVYYCQNDYSYPYTFGQGTKLEIKR
For B1, the “MFI as percent of WT staining” value was 100 % of WT MFI.
